Where “and” joins values, the source holds several entries; their conditions need not be identical. Identical values can stand only once.
Tests used:
Format in all cases: in vivo
Settings in all cases: ANIT 50 mg/kg i.g.
MDR1 = test: Expression level of MDR1 in rat liver by UHPLC-MS/MS
Protocol: (§1) Male Sprague Dawley rats (230 ± 20 g, 6–8 weeks of age) were purchased from B&K Laboratory Animal, Corp. Ltd. (Shanghai, China) and fed in the Laboratory Animal Center of Shanghai University of Traditional Chinese Medicine. All rats were allowed to acclimatize for 3 days before experimentation. The rats were randomly divided into six groups (n = 5 for each group). […] Moreover, groups 1 and 2 were intragastrically treated with physiological saline (0.9%) at a dose of 1 mL/100 g. […] At the end of the experiment, all rats were euthanized by CO2 inhalation. The serum samples were stored at -70°C until analysis, and liver samples were isolated and stored at -70°C for further analysis, whereas the central part of the right large lobe of the liver was used for histological examination.
(§2) Biotransformation of xenobiotics and endogenous compounds is a crucial step in the absorption and elimination of potentially harmful substances from the human body, a process that could be affected by the levels of pharmacokinetic enzymes and transporter proteins. […]
(§3) Total membrane protein was isolated (in triplicate) from liver tissue according to the Native Membrane Protein Extraction Kit protocol. Subsequently, protein concentrations were determined by applying the BCA Protein Assay Kit. […]

BSEP = test: Expression level of BSEP in rat liver by UHPLC-MS/MS
Protocol: as §1, §2, §3

OCT1 = test: Expression level of OCT1 in rat liver by UHPLC-MS/MS
Protocol: as §1, §2, §3

OATP1A1 = test: Expression level of OATP1A1 in rat liver by UHPLC-MS/MS
OATP1A4 = test: Expression level of OATP1A4 in rat liver by UHPLC-MS/MS
UGT1A1 = test: Expression level of UGT1A1 in rat liver by UHPLC-MS/MS
Protocol: as §1, §2, §3

NTCP = test: Expression level of NTCP in rat liver by UHPLC-MS/MS
MRP2 = test: Expression level of MRP2 in rat liver by UHPLC-MS/MS
OATP1A2 = test: Expression level of OATP1A2 in rat liver by UHPLC-MS/MS

S=C=Nc1cccc2ccccc12 [ANIT, alpha-naphthylisothiocyanate]
MDR1 expression level decreased by, model group compared with control group (MDR1): 79.1%
BSEP expression level reduced by, model group compared with control group (BSEP): 37.1%
OCT1 expression level decreased by, model group compared with control group (OCT1): 52.0% and 76.7%
OATP1A1 expression level decreased by, model group compared with control group (OATP1A1): 40.8%
OATP1A4 expression level decreased by, model group compared with control group (OATP1A4): 75.1%
UGT1A1 expression level decreased by, model group compared with control group (UGT1A1): 68.1%
NTCP expression level decreased by, model group compared with control group (NTCP): 76.7%
MRP2 expression level reduced by, model group compared with control group (MRP2): 57.0%
OATP1A2 expression level decreased by, model group compared with control group (OATP1A2): 44.4%
